Measurements published in BindingDB's records for doi:10.1016/j.bmcl.2009.07.032 (Amgen, 2009).

Experiment: Antagonist activity against human CXCR3 expressed in human PBMC assessed as inhibition of cell migration in response to ITAC in plasma

Which IC50 does the source give for `CCOc1ccc(-n2c([C@@H](C)N(Cc3cccnc3)C(=O)Cc3ccc(OC(F)(F)F)cc3)nc3ncccc3c2=O)cc1` [(-)-(R)-N-(1-(3-(4-ethoxyphenyl)-4-oxo-3,4-dihydropyrido[2,3-d]pyrimidin-2-yl)ethyl)-N-(pyridin-3-ylmethyl)-2-(4-(trifluoromethoxy)phenyl)acetamide] here?
Its IC50 is 240 nM.
